For series [1] the following is noted: mouse, in vivo, po. How it is done: Several non-GLP pilot toxicity studies have been conducted in rodents. […] In a 14-day oral toxicity study in the mouse was conducted with doses of 100, 300 and 1000 mg/kg.
Series [2] is described as follows: Sheep model of allergic asthma (Ascaris suum challenge). The settings on record: administered in an aqueous suspension. In kind it is in vivo. Here is the method:
Sheep develop bronchoconstriction within minutes of exposure to inhaled antigen (Ascaris suum), with maximal airflow obstruction during the early allergic response (EAR). Release of preformed mast cell mediators is likely responsible for this early phase of airflow obstruction. […] In the sheep, AHR develops a few hours following antigen challenge, and can persist for up to 2 weeks.
In the sheep model of allergic asthma, sheep are administered aerosols of test article via an endotracheal tube, followed by an aerosol challenge with antigen extracted from the roundworm, Ascaris suum, to which the sheep are naturally allergic. Allergen challenge leads to direct bronchoconstriction (both EAR and LAR) and a persistent non-specific AHR. These three characteristics are similar to those seen in human allergic asthmatics. The activity of the test agent is determined by changes in the lung resistance (RL), which is calculated from measurements of transpulmonary pressure, flow, and respiratory volume. […] The LAR is a less pronounced increase in RL, which starts approximately 5-6 hours following allergen challenge and is resolved by 8 hours post-challenge. Twenty-four hours after the challenge, a dose response to carbachol is measured to determine the AHR, which is expressed as the dose of carbachol required to increase RL by 400% over baseline. […]

Details of series [3]: species or system rabbits and primates; mice and rats. The settings on record: in vivo. From the text:
A short discussion of key toxicology studies is provided.

SMILES strings stand for the structures. Where two headings read alike, the source gives them in different places.

In the case of `Nc1cccc(Nc2ncc(F)c(Nc3cccc(N)c3)n2)c1` [Compound R921302, N2,N4-Bis(3-aminophenyl)-5-fluoro-2,4-pyrimidinediamine], the values for the tolerability result in series [1] (100 mg/kg) and in series [1] (300 mg/kg) were “well tolerated” and “not tolerated”, respectively. Further, the “effect on the EAR (in words)” value in series [2] was “failed to inhibit the EAR”.

For the molecule `Oc1cccc(Nc2ncc(F)c(Nc3cccc(O)c3)n2)c1` [Compound R921218, N2,N4-Bis(3-hydroxyphenyl)-5-fluoro-2,4-pyrimidinediamine], in series [3], the “core safety pharmacology battery” value was “no adverse findings” and the genetic toxicology testing result is given as “no evidence for mutagenic or clastogenic potential”.

These data come from patent US10828301B2, “2,4-pyrimidinediamine compounds and their uses” (Rigel Pharmaceuticals, Inc, priority 2002, dated 2020).
